Protein sequences, listed by entry. Tags and fused reporters are not part of them. Lines headed by an entry give the natural chain unless they say otherwise; changes in a name come on top.
UniProt P30872: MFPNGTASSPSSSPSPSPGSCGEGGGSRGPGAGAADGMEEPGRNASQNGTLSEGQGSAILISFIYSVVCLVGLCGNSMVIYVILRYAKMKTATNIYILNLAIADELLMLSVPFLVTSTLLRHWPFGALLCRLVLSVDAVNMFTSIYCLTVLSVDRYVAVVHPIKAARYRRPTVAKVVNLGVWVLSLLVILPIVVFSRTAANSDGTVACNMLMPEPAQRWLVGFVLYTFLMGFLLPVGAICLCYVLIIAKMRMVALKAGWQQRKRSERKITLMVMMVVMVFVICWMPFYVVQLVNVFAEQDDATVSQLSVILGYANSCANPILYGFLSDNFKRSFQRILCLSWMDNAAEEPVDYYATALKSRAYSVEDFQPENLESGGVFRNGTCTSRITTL
UniProt P31391: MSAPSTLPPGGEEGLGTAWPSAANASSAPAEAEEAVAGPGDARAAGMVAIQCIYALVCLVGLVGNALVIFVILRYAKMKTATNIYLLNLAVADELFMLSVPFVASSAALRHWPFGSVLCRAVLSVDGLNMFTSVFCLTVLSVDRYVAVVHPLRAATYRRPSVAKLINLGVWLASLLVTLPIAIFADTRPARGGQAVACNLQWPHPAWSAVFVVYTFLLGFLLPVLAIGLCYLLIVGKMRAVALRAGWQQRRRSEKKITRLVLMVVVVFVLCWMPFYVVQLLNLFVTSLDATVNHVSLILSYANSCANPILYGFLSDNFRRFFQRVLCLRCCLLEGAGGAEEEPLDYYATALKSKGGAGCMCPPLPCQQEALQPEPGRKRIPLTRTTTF
UniProt P30874: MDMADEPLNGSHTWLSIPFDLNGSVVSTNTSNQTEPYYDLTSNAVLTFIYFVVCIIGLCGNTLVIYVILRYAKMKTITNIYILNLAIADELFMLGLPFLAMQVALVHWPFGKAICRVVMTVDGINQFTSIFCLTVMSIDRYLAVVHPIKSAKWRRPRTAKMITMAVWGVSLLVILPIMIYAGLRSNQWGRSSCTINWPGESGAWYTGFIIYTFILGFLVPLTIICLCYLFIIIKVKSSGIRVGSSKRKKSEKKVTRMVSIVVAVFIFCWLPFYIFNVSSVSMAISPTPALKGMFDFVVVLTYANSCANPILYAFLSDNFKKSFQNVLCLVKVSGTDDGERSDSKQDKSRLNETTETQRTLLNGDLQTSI
UniProt P32745: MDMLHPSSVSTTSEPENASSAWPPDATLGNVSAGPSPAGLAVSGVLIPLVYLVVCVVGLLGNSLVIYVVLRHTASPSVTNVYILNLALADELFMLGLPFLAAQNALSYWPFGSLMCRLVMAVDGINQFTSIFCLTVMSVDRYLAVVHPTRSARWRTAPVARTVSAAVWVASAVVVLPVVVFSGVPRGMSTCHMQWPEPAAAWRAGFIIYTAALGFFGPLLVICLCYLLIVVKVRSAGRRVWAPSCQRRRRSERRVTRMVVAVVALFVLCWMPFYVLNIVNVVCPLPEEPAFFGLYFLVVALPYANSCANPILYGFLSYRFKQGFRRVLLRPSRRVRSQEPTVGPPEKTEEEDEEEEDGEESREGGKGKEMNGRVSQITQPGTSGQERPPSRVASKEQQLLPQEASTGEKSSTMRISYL
UniProt P35346: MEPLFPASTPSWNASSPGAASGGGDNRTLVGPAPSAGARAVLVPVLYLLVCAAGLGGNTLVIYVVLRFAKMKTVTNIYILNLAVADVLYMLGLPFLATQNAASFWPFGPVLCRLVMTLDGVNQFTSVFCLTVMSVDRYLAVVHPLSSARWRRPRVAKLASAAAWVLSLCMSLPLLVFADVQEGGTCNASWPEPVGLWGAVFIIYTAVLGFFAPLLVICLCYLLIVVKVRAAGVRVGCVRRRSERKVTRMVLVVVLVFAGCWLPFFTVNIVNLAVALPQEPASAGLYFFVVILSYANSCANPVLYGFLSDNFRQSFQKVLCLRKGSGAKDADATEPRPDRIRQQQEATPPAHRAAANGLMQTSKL

In US20170157260A1, “Glycosylated Polypeptide and Drug Composition Containing said Polypeptide” (Glytech, Inc., priority 2011, published 2017):

Tests used:
SSTR1 [1] = biological target: T1, SSTR1 (Homo sapiens, UniProt P30872); assay: Agonist activity evaluation (cAMP production suppression), SSTR1 receptor expression cells; assay type: cell-based; conditions: Table 3D, Example 67-3; read-out: IC50 of cAMP production suppressing action (agonist activity), SSTR1
SSTR4 [2] = biological target: T2, SSTR4 (Homo sapiens, UniProt P31391); assay: Agonist activity evaluation (cAMP production suppression), SSTR4 receptor expression cells; assay type: cell-based; conditions: Table 3D, Example 67-3; read-out: IC50 of cAMP production suppressing action (agonist activity), SSTR4
[3] = tested on: growth hormone (GH) production; assay: GH production suppression test with rats; assay type: in vivo
SSTR2 [4] = biological target: T3, SSTR2 (Homo sapiens, UniProt P30874); assay: Agonist activity evaluation (cAMP production suppression), SSTR2 receptor expression cells; assay type: cell-based; set-up: host or cells: CHO-K1 cells; conditions: Table 3D, Example 67-3; read-out: IC50 of cAMP production suppressing action (agonist activity), SSTR2
SSTR3 [5] = biological target: T4, SSTR3 (Homo sapiens, UniProt P32745); assay: Agonist activity evaluation (cAMP production suppression), SSTR3 receptor expression cells; assay type: cell-based; set-up: host or cells: CHO-K1 cells; conditions: Table 3D, Example 67-3; read-out: IC50 of cAMP production suppressing action (agonist activity), SSTR3
SSTR5 [6] = biological target: T5, SSTR5 (Homo sapiens, UniProt P35346); assay: Agonist activity evaluation (cAMP production suppression), SSTR5 receptor expression cells; assay type: cell-based; set-up: host or cells: CHO-K1 cells; conditions: Table 3D, Example 67-3; read-out: IC50 of cAMP production suppressing action (agonist activity), SSTR5
SSTR1 [7] = biological target: T1, SSTR1; assay: Competitive binding assay, SSTR1; conditions: Table 3B, Example 67-2, competitive binding assay; for Ki: read-out: SSTR1 Ki; for IC50: read-out: SSTR1 IC50
SSTR2 [8] = biological target: T3, SSTR2; assay: Competitive binding assay, SSTR2; conditions: Table 3B, Example 67-2, competitive binding assay; for IC50: read-out: SSTR2 IC50; for Ki: read-out: SSTR2 Ki
SSTR3 [9] = biological target: T4, SSTR3; assay: Competitive binding assay, SSTR3; conditions: Table 3B, Example 67-2, competitive binding assay; for IC50: read-out: SSTR3 IC50; for Ki: read-out: SSTR3 Ki
SSTR5 [10] = biological target: T5, SSTR5; assay: Competitive binding assay, SSTR5; conditions: read-out: SSTR5 IC50; Table 3B, Example 67-2, competitive binding assay
[11] = Pharmacokinetics test with rats (intravenous and subcutaneous administration); conditions: for BA: subcutaneous vs intravenous
SSTR1 [12] = biological target: T1, SSTR1
SSTR2 [13] = biological target: T3, SSTR2
SSTR3 [14] = biological target: T4, SSTR3
SSTR5 [15] = biological target: T5, SSTR5
SSTR4 [16] = biological target: T2, SSTR4; assay: Competitive binding assay, SSTR4; conditions: Table 3B, Example 67-2, competitive binding assay
[17] = Table 8 (Example 87), dose 10 nmol/kg, vehicle 1012
[18] = rats, intravenous administration, Tables 5B-5F (Examples 73-84)
[19] = rats, subcutaneous administration, Tables 5B-5F (Examples 73-84)
[20] = rats, Tables 5B-5F (Examples 73-84)
[21] = Table 4, rats, 40 nmol/kg intravenous
[22] = Table 4, rats, 40 nmol/kg subcutaneous
[23] = rats, administered intravenously
[24] = rats, intravenous administration, Table 5A (Examples 69-72), spread in the line below
[25] = rats, subcutaneous administration, Table 5A (Examples 69-72), spread in the line below

## S1C(disialo(aminoethylamide))-SRIF28 [Example 57]
SSTR1 [1]
  IC50: 1 ± 0.9 nM
SSTR4 [2]
  IC50: 0.085 ± 0.011 nM
[3]; [17]
  GH: 314 ng/mL
SSTR2 [4]
  IC50: 0.1 ± 0.02 nM
SSTR3 [5]
  IC50: 0.3 ± 0.15 nM
SSTR5 [6]
  IC50: 0.081 ± 0.019 nM
SSTR1 [7]
  Ki: 1.94 nM
SSTR2 [8]
  IC50: 0.101 nM
  Ki: 0.0536 nM
SSTR3 [9]
  IC50: 0.766 nM
  Ki: 0.264 nM
SSTR5 [10]
  IC50: 2.08 nM
[11]; [18]
  Intravenous administration AUC: 3473 nM·min
  Intravenous administration C0: 746 nM
  Intravenous administration MRT: 12.1 min
  Intravenous administration T1/2: 18.6 min
[11]; rats, subcutaneous
  AUC for subcutaneous administration as fraction of S1C(disialo)-SRIF28: 1/7
[11]; [19]
  Subcutaneous administration AUC: 284 nM·min
  Subcutaneous administration Cmax: 9.60 nM
  Subcutaneous administration MRT: 33.2 min
  Subcutaneous administration T1/2: 27.1 min
[11]; [20]
  BA: 8%

## S1C(disialo)-SRIF28 [Example 1]
SSTR1 [1]
  IC50: 2.2 ± 1.1 nM
SSTR4 [2]
  IC50: 0.065 ± 0.042 nM
[3]; Table 7 (Example 86), subcutaneous, dose 1 nmol/kg, 1 hour before GRF, plasma GH 5 minutes after GRF, vehicle 861
  GH: 490 ng/mL
[3]; Table 7 (Example 86), subcutaneous, dose 10 nmol/kg, 1 hour before GRF, plasma GH 5 minutes after GRF, vehicle 861
  GH: 17.1 ng/mL
[3]; Table 8 (Example 87), dose 1 nmol/kg, vehicle 1012
  GH: 787 ng/mL
[3]; Table 8 (Example 87), dose 3 nmol/kg, vehicle 1012
  GH: 182 ng/mL
[3]; [17]
  GH: 15 ng/mL
[3]; Table 8 (Example 87), dose 30 nmol/kg, vehicle 1012
  GH: 8 ng/mL
[3]; Table 8 (Example 87), dose 100 nmol/kg, vehicle 1012
  GH: 7 ng/mL
SSTR1 [12]
  IC50: 2.19 nM
  Ki: 1.81 nM
SSTR2 [13]
  IC50: 0.109 nM
  Ki: 0.0576 nM
SSTR3 [14]
  IC50: 0.48 nM
  Ki: 0.164 nM
SSTR5 [15]
  IC50: 0.442 nM
  Ki: 0.25 nM
SSTR2 [4]
  IC50: 0.075 ± 0.03 nM
SSTR3 [5]
  IC50: 0.13 ± 0.06 nM
SSTR5 [6]
  IC50: 0.056 ± 0.028 nM
SSTR1 [7]
  IC50: 7.71 nM
  Ki: 6.45 nM
SSTR2 [8]
  IC50: 0.543 nM
  Ki: 0.289 nM
SSTR3 [9]
  IC50: 1.08 nM
  Ki: 0.676 nM
SSTR5 [10]
  IC50: 1.61 nM
[11]; [21]
  AUC, intravenous administration: 5086 nM·min
  MRT, intravenous administration: 20.4 min
  t1/2, intravenous administration: 18.1 min
[11]; Table 4, rats, 40 nmol/kg intravenous, extrapolation method
  C0 (predicted initial concentration), intravenous administration: 780 nM
[11]; [22]
  AUC, subcutaneous administration: 1273 nM·min
  Cmax, subcutaneous administration: 19.9 nM
  MRT, subcutaneous administration: 43.8 min
  t1/2, subcutaneous administration: 26.0 min
[11]; as measured in the method of Examples 68-72
  increase in half-life in blood: ≥ 10 folds
[11]; [23]
  extension of t1/2 compared to the non-glycosylated form (SRIF28 or SRIF14): 13 folds
  increase of AUC compared to the non-glycosylated form (SRIF28 or SRIF14): 11 folds
[11]; [24]
  Intravenous administration AUC: 4855 nM·min
  Intravenous administration C0: 686 nM
  Intravenous administration MRT: 18.6 min
  Intravenous administration t1/2: 16.9 min
[11]; [18]
  Intravenous administration AUC: 5190 nM·min
  Intravenous administration C0: 633 nM
  Intravenous administration MRT: 19.1 min
  Intravenous administration T1/2: 17.7 min
[11]; [25]
  Subcutaneous administration AUC: 1773 nM·min
  Subcutaneous administration Cmax: 28.9 nM
  Subcutaneous administration MRT: 47.9 min
  Subcutaneous administration t1/2: 29.8 min
[11]; [19]
  Subcutaneous administration AUC: 1946 nM·min
  Subcutaneous administration Cmax: 30.1 nM
  Subcutaneous administration MRT: 49.2 min
  Subcutaneous administration T1/2: 31.2 min
[11]; rats, BA=(AUC(sc)/Dose(sc))/(AUC(iv)/Dose(iv)), Table 5A
  BA: 37%
[11]; [20]
  BA: 38%
[11]; rats, Examples 69-72 (text on Table 5A)
  bioavailability (BA), subcutaneous administration: 37%

## S1C(disialo).E12C(disialo)-SRIF28 [Example 47]
SSTR4 [16]
  IC50: 20 nM
SSTR1 [7]
  IC50: 22 nM
SSTR2 [8]
  IC50: 2.7 nM
  Ki: 1.44 nM
SSTR3 [9]
  IC50: 4.62 nM
  Ki: 1.58 nM
SSTR5 [10]
  IC50: 2.11 nM

Where two headings read alike, the source gives them in different places.
